Values quoted from earlier work in PMC4023695 (ACS medicinal chemistry letters, 2014).

By UniProt entry, the sequences of proteins in these tests, tags left out.
UniProt P33535, whole entry: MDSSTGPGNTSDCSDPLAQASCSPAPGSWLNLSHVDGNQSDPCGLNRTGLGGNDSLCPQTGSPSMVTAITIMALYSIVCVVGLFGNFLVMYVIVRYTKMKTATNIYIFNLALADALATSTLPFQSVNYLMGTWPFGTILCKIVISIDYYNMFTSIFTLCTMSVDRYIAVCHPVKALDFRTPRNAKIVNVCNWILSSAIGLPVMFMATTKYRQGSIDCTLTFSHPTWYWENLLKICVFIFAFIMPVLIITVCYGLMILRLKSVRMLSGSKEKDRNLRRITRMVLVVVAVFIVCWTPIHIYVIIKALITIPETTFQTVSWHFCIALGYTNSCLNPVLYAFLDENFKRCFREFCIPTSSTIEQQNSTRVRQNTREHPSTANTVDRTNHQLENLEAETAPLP

Target: MOR (Rattus norvegicus, UniProt P33535)
Settings: read-out: Kiμ; DALDA literature characterisation, no reference given; cited from earlier work

In the case of Tyr-D-Arg-Phe-Lys-NH2 [DALDA], the Ki is given as 1.69 nM.
